Data on 29 compounds can be found in PubChem BioAssay AID1381 (University of Pittsburgh Molecular Library Screening Center, 2008).

The entries are a selection whose mix differs from that of the whole data set. The source made the active and inactive calls.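 Rule for the calls: active = plate z-score of nuclear minus cytoplasmic receptor signal below a set negative limit, without overly bright fluorescence or cell loss (cut at about -3.5 in these data, passing the limit was not always enough); inactive = the rest, inconclusive results apart.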

This assay is described as follows: inhibitors of GR-EGFP nuclear translocation, primary screen, dynein cargo transport inhibitor project, imaging, high-content, 3617.4 mouse cells (AID 1381). Conditions: active compounds read low, stimulated with dexamethasone, 1 µM; at 20 µM unless noted.
Take `Cc1ccc(OCC(C)C)c(CN(CCCl)CCCl)c1`: the z-score is inactive: -2.69.
The figure for `CCOc1ccc(C)cc1CN(CCCl)CCCl` is inactive: -1.48.
`COc1ccc(NC2CCN(CCc3ccccc3)CC2)c(OC)c1`: the z-score is inactive: -0.404.
Under `O=C(NCC1(N2CCOCC2)CCCCC1)c1cc2ccccc2o1` stands inactive: -0.302 [at 50 µM].
`N#CC1(Nc2ccccc2)CCN(Cc2ccccc2)CC1`: the z-score was inactive: 1.25.
The figure for `O=C(OC1CN2CCC1CC2)C1c2ccccc2Oc2ccccc21` (centres undefined) is inactive: 0.982; for `CCOC(=O)N1CCC(Nc2ccc(OC)cc2)CC1` it is inactive: -0.19.
The figure for `COc1ccc(C(=O)NCC2(N3CCCCC3)CCCCC2)c(OC)c1OC` is inactive: 0.415; for `CN1CCC(Nc2cccc(F)c2)CC1` it is inactive: 1.55; for `CC(C)c1ccc(NC2CCN(C(=O)OC(C)(C)C)CC2)cc1` it is inactive: -0.341.
The figure for `COc1ccc(CN(CCCl)CCCl)cc1Cl` is inactive: -0.968; for `CN(C)c1cccc(C(=O)NCC2(N3CCCCC3)CCCCC2)c1` it is inactive: 0.702; for `O=C(NCC1(N2CCOCC2)CCCCC1)c1cc(=O)[nH]c2ccccc12` it is inactive: 0.371 [at 50 µM].
As for `COc1ccc(NC2CCN(C(=O)OC(C)(C)C)CC2)cc1`, the z-score was inactive: 2.57.
For the compound `CN1CCN(CCOC(=O)C(O)(c2ccccc2)c2ccccc2)CC1`, the z-score was inactive: 0.326.
The figure for `N#CC1(Nc2ccccc2)CCN(CCc2ccccc2)CC1` is inactive: -0.149.
Consider `O=C(NCC1(N2CCCCC2)CCCCC1)c1cccc([N+](=O)[O-])c1`, for which the z-score was inactive: 0.588.
Under `c1ccc(CN2CCC(Nc3ccccc3)CC2)cc1` stands inactive: -0.375 [at 50 µM]; under `N#Cc1ccc(C(=O)NCC2(N3CCCCC3)CCCCC2)cc1`, inactive: -0.141; under `N/C(=N\O)c1c(N)no[n+]1[O-]`, inactive: -0.122.
In the case of `O=C(OC1CN2CCC1CC2)C1c2ccccc2C=Cc2ccccc21` (centres undefined), the z-score was inactive: 0.32.
The figure for `COc1ccc(C(=O)NCC2(N3CCOCC3)CCCCC2)cc1OC` is inactive: -0.931.
Under `COc1cc(OC)cc(C(=O)NCC2(N3CCOCC3)CCCCC2)c1` stands inactive: -1.39; under `CCC(CO)(C(=O)OC1CN2CCC1CC2)c1ccccc1` (centres undefined), inactive: 0.899; under `CCCOc1ccc(C)cc1CN(CCCl)CCCl`, inactive: -2.12.
Under `CCOc1ncccc1C(=O)NCC1(N2CCOCC2)CCCCC1` stands inactive: 0.559; under `CC(C)(C)OC(=O)N1CCC(Nc2ccccc2)CC1`, inactive: -0.0954; under `CCN1CCC(Nc2cccc(F)c2)CC1`, inactive: 0.0464.
`CN(C)c1ccc(C(=O)NCC2(N3CCCCC3)CCCCC2)cc1`: the z-score is inactive: -0.91.
